The nature of this data set: in vivo. Particulars: po, mouse, 7 days, read-out: Acute toxicity LD50. The source says: Male ddY mice weighing 18-25 g were used in groups of 5-15 animals. Test compounds suspended in 0.5% aqueous tragacanth solution were given orally, and the mortality was investigated for 7 days following administration.

Usually LD50 stands for the dose expected to kill half of the subjects tested.

For the compound `CCc1ccc(C(=O)C(C)CN2CCCC2)cc1.Cl` (stereo not shown) [Compound A, 1-(4-ethylphenyl)-2-methyl-3-(1-pyrrolidinyl)-1-propanone hydrochloride, reference compound], the 50% lethal dose (LD50) at 168 h was 458 mg/kg.

The values above are taken from patent US5847159A, “1-[ω-(3,4-dihydro-2-naphthalenyl)alkyl]-cyclic amine derivatives, process for preparing the same, and pharmaceutical composition containing the same” (priority 1995, dated 1998).
